This is a selection; strong and weak results do not stand in their true shares. Results with a measured potency or affinity are listed apart. Activity calls are given as the source filed them. How the calls were made is not given here.
Test: PhoP regulon inhibitors, Salmonella typhi PhoP promoter GFP reporter, confirmatory (AID 1850);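 further: 0% = induced wells with vehicle and 100% = uninduced wells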
Conditions: fluorescence, 4 h, at 50 µM, hits give high values
For `Nc1ccccc1[As](=O)(O)c1ccccc1`, the inhibition was inactive: -13.4%. In the case of `O=P(Nc1nccs1)(Oc1ccccc1)Oc1ccccc1`, the inhibition is reported as inactive: 21.5%. In the case of `O=P(Nc1nccs1)(c1ccccc1)c1nc2ccccc2s1` (stereo not drawn), the inhibition is reported as inactive: 0%. In the case of `CCOP1(=S)c2c(C)nn(CCC#N)c2N=C(c2ccccc2F)N1C` (stereo not drawn), the inhibition is reported as inactive: -15.1%. For `CS(=O)(=O)c1cc([N+](=O)[O-])c2no[n+]([O-])c2c1`, the inhibition was inactive: -54.9%. With `Nc1cccc([As](=O)(O)c2ccccc2)c1` the inhibition was inactive: -7.26%. In the case of `O=[As](O)(c1cccs1)c1cccs1`, the inhibition is reported as inactive: 5.33%. For `Cc1ccc(OCC(=O)OC2CN3CCC2CC3)cc1` (stereo not drawn), the inhibition was inactive: 0.16%. With `O=P1(Nc2ccc(Br)cn2)COc2ccccc2OC1` the inhibition was inactive: 3.41%. In the case of `O=P1(Nc2ncccn2)COc2ccccc2OC1`, the inhibition is reported as inactive: -13.1%. For `CN(C)C1(CNC(=O)c2ccc(S(C)(=O)=O)cc2)CCCCC1`, the inhibition was inactive: 4.62%. For `O=C(/C=C/c1ccccc1)OC1CN2CCC1CC2` (stereo not drawn), the inhibition was inactive: -0.27%. For `Cc1ccc(C(=O)OC2CN3CCC2CC3)cc1` (stereo not drawn), the inhibition was inactive: -0.37%. For `CC1CCC(C(C)C)C(OP(=O)(Nc2ccccn2)c2ccccc2)C1` (stereo not drawn), the inhibition was inactive: -7.09%. With `Cc1nn(-c2ccccc2)c2c1P(=O)(N1CCOCC1)N(C)C(c1ccccc1)=N2` (stereo not drawn) the inhibition was inactive: -4.03%. With `CN(C(=O)Cc1ccc(Cl)c(Cl)c1)[C@@H]1CCCC[C@H]1N1CCCC1` the inhibition was inactive: -2.68%. With `CC(C)/C=N\N=C(\N)N[N+](=O)[O-]` the inhibition was inactive: 0.28%. In the case of `CC1(CBr)Cn2c(nc3ccccc3c2=O)S1` (stereo not drawn), the inhibition is reported as inactive: -4.28%. In the case of `O=[As](O)(c1ccccc1Br)c1ccccc1Br`, the inhibition is reported as inactive: 5.61%. With `COc1ccccc1CNC(=O)COC(=O)C(O)(c1ccccc1)c1ccccc1` the inhibition was inactive: -1.97%. With `CC(C)(C)C(=O)NC(Sc1ncccn1)C(Cl)(Cl)Cl` (stereo not drawn) the inhibition was inactive: 5.6%. In the case of `Clc1n[nH]nc1-c1nn[nH][15n]1`, the inhibition is reported as inactive: 6.24%. In the case of `CCOP(=O)(NC(=NC(C)c1ccccc1)NC(C)c1ccccc1)OCC` (stereo not drawn), the inhibition is reported as inactive: 5%. With `O=P1(Nc2ccccn2)COc2ccccc2OC1` the inhibition was inactive: -8.05%. For `CCOP(=O)(Nc1ccc(C)cn1)OCC`, the inhibition was inactive: -5.22%. In the case of `CN(CCCl)Cc1cc(Cl)c(NC2=NCCN2)c(Cl)c1`, the inhibition is reported as inactive: 1.05%. With `CCC(C)N(CC(C)C)C(=S)SC(NC(C)=O)C(Cl)(Cl)Cl` (stereo not drawn) the inhibition was inactive: -17.2%. For `O=C(OC1CN2CCC1CC2)c1cccc([N+](=O)[O-])c1` (stereo not drawn), the inhibition was inactive: 6.16%. In the case of `CCOC(=O)c1ccc(NC(=O)C(C)(CCl)SC)cc1` (stereo not drawn), the inhibition is reported as inactive: -4.61%. For `O=C(Nc1ccncc1[N+](=O)[O-])c1ccc([N+](=O)[O-])cc1[N+](=O)[O-]`, the inhibition was inactive: 8.82%. With `O=C(COc1ccccc1)OC1CN2CCC1CC2` (stereo not drawn) the inhibition was inactive: 0.57%. With `COP1(=S)c2c(C)nn(CCC#N)c2N=C(c2ccc(F)cc2)N1C` (stereo not drawn) the inhibition was inactive: 7.15%. For `Cc1cc(SC(NC=O)C(Cl)(Cl)Cl)ncn1` (stereo not drawn), the inhibition was inactive: -4.32%. In the case of `O=P(Nc1ccccn1)(c1cccc2ccccc12)c1cccc2ccccc12`, the inhibition is reported as inactive: 10.9%. In the case of `O=[N+]([O-])c1ccc(Nc2ccc(Oc3ccc([N+](=O)[O-])cc3[N+](=O)[O-])cc2)c([N+](=O)[O-])c1`, the inhibition is reported as inactive: -0.04%. In the case of `CCOC(=O)Nc1cccc([As](=O)(O)O)c1`, the inhibition is reported as inactive: -8.81%. For `Cc1cc(SC(NC(=O)c2ccccc2)C(Cl)(Cl)Cl)nc(C(C)C)n1` (stereo not drawn), the inhibition was inactive: -4.88%. With `CCOC(=O)Nc1ccc([As](=O)(O)O)c(O)c1` the inhibition was inactive: 8.87%. With `O=[N+]([O-])c1cc([N+](=O)[O-])c(-c2ccn[nH]2)s1` the inhibition was inactive: -0.95%. In the case of `CC(C)NC(=O)NP(=O)(Oc1ccccc1)Oc1ccccc1`, the inhibition is reported as inactive: 2.13%. For `CCN(CC)C(=S)SC(NC=O)C(Cl)(Cl)Cl` (stereo not drawn), the inhibition was inactive: -3.63%. In the case of `ClCCSc1nnc(-c2cccnc2)o1`, the inhibition is reported as inactive: 7.72%. With `CC(C)c1ccc(OP(=O)(Nc2ccccn2)Oc2ccccc2F)cc1` (stereo not drawn) the inhibition was inactive: 16.8%. With `Cc1ccc(OP(=O)(Nc2ccc([N+](=O)[O-])cn2)Oc2ccc(C)cc2)cc1` the inhibition was inactive: -4.34%. For `Cc1ccc2nc3c(c(C)c2c1)CC(C(Cl)Cl)S3` (stereo not drawn), the inhibition was inactive: -5.48%. With `O=[As](O)(c1ccc(O)cc1)c1ccccc1O` the inhibition was inactive: -5.82%. With `C[As](=O)(O)c1cccc(C(=O)O)c1` the inhibition was inactive: -2.82%. With `COc1ccc(N/C(=N/P(=O)(N2CCOCC2)N2CCOCC2)N2CCOCC2)cc1` the inhibition was inactive: -3.32%. In the case of `COc1cc(I)ccc1[As](=O)(O)O`, the inhibition is reported as inactive: 1.79%. In the case of `COc1ccc2nc(NP(=O)(c3ccccc3)c3ccccc3)sc2c1`, the inhibition is reported as inactive: 3.59%. For `Cc1c2c(nc3ccccc13)SC(C(Cl)Cl)C2` (stereo not drawn), the inhibition was inactive: -6.75%. With `Cc1cc(=O)[nH]c(N[N+](=O)[O-])n1` the inhibition was inactive: -3.2%. In the case of `O=C(OC1CN2CCC1CC2)C12CC3CC(CC(C3)C1)C2` (stereo not drawn), the inhibition is reported as inactive: 9.94%.
